The assay has as its target recombinant human UAE (Homo sapiens (Human), UniProt P22314). As to the kind of experiment: Ubiquitin Activating Enzyme (UAE) HTRF assay, human UAE. (In general: In TR-FRET formats the signal depends on donor and acceptor labels being close together.)

By UniProt entry, the sequences of proteins in these tests, tags left out. Where a name states a change or a piece, a line headed by the entry shows the natural chain unless it says otherwise.
UniProt P22314: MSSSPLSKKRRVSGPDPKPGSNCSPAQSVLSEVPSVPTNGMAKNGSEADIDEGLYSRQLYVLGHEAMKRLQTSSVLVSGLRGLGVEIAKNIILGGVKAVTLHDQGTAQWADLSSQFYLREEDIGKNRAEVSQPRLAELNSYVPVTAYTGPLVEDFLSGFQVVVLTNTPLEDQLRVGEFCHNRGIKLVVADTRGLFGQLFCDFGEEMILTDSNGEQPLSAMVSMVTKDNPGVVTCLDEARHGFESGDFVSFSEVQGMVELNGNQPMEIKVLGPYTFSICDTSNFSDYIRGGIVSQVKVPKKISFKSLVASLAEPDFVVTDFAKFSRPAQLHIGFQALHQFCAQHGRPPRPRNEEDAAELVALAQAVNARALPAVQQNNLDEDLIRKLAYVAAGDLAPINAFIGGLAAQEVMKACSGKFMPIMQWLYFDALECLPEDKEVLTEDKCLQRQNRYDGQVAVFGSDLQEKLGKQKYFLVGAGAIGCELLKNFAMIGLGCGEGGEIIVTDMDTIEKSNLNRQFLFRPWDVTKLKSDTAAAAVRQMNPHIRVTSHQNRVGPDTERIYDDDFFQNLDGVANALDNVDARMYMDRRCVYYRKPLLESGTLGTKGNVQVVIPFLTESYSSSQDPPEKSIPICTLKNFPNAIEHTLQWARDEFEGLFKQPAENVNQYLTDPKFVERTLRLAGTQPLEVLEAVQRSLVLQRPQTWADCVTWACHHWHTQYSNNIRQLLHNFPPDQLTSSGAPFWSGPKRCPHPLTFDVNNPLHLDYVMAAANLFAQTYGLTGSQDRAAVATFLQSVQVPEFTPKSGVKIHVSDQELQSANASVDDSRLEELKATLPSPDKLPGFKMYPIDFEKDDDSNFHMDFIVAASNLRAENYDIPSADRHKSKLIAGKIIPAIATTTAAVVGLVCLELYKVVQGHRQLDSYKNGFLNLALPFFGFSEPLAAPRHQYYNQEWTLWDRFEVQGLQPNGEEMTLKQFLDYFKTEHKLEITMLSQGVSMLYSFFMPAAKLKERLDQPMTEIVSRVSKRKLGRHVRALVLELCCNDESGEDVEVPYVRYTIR

Read-outs that look alike come from different tables or passages of the source.

For orientation: IC50 means the concentration that inhibits the measured activity by half. As to `NS(=O)(=O)OC[C@H]1C[C@@H](Nc2ccnc3cc(-c4ccc5cc(F)ccc5c4)nn23)[C@H](O)[C@@H]1O` [Compound I-113, (s.e.)-((1R,2R,3S,4R)-4-(2-(6-fluoronaphthalen-2-yl)pyrazolo[1,5-a]pyrimidin-7-ylamino)-2,3-dihydroxycyclopentyl)methyl sulfamate], the IC50 (human UAE) was under 10 nM.

Take `NS(=O)(=O)OC[C@H]1C[C@@H](Nc2ccnc3cc(-c4cc(C(F)(F)F)ccc4F)nn23)[C@H](O)[C@@H]1O` (racemic) [Compound I-029, (rac)-((1R,2R,3S,4R)-4-((2-(2-Fluoro-5-(trifluoromethyl)phenyl)pyrazolo[1,5-a]pyrimidin-7-yl)amino)-2,3-dihydroxycyclopentyl)methyl rel-sulfamate]: the IC50 was under 10 nM.

For the compound `NS(=O)(=O)OC[C@H]1C[C@@H](Nc2ccnc3cc(-c4cc(F)c5ccccc5c4)nn23)[C@H](O)[C@@H]1O` [Compound I-118, (s.e.)-((1R,2R,3S,4R)-4-(2-(4-fluoronaphthalen-2-yl)pyrazolo[1,5-a]pyrimidin-7-ylamino)-2,3-dihydroxycyclopentyl)methyl sulfamate], under “human UAE”, the IC50 is under 10 nM.

Take `CC1(C)OCc2ccc(-c3cc4nccc(N[C@@H]5C[C@H](COS(N)(=O)=O)[C@@H](O)[C@H]5O)n4n3)cc21` (racemic) [Compound I-053, (rac)-((1R,2R,3S,4R)-4-(2-(3,3-dimethyl-1,3-dihydroisobenzofuran-5-yl)pyrazolo[1,5-a]pyrimidin-7-ylamino)-2,3-dihydroxycyclopentyl)methyl rel-sulfamate]: the IC50 is under 10 nM.

For `NS(=O)(=O)OC[C@H]1C[C@@H](Nc2ccnc3cc(-c4ccnc5cc(Cl)ccc45)nn23)[C@H](O)[C@@H]1O` (racemic) [Compound I-039, (rac)-((1R,2R,3S,4R)-4-(2-(7-chloroquinolin-4-yl)pyrazolo[1,5-a]pyrimidin-7-ylamino)-2,3-dihydroxycyclopentyl)methyl rel-sulfamate], the IC50 is under 10 nM.

Regarding `Cc1ccc(-c2cc3nccc(N[C@@H]4C[C@H](COS(N)(=O)=O)[C@@H](O)[C@H]4O)n3n2)c2ccccc12` [Compound I-115, (s.e.)-((1R,2R,3S,4R)-2,3-dihydroxy-4-(2-(4-methylnaphthalen-1-yl)pyrazolo[1,5-a]pyrimidin-7-ylamino)cyclopentyl)methyl sulfamate], the IC50 (human UAE) was under 10 nM.

For the compound `CCc1ccc2scc(-c3cc4nccc(N[C@@H]5C[C@H](COS(N)(=O)=O)[C@@H](O)[C@H]5O)n4n3)c2c1` (racemic) [Compound I-094, (rac)-((1R,2R,3S,4R)-4-(2-(5-ethylbenzo[b]thiophen-3-yl)pyrazolo[1,5-a]pyrimidin-7-ylamino)-2,3-dihydroxycyclopentyl)methyl rel-sulfamate], the IC50 is under 10 nM.

The values above are taken from patent publication US9663525B2, “Pyrazolopyrimidinyl inhibitors of ubiquitin-activating enzyme” (Millennium Pharmaceuticals, Inc., priority 2012, dated 2017).
